Data: patent US12180207B2 (ARRAY BIOPHARMA INC., priority 2018, dated 2024)

Amino acid sequences for entries named in this document (tags omitted). Residues count along the entry.
UniProt P22607, 23-806: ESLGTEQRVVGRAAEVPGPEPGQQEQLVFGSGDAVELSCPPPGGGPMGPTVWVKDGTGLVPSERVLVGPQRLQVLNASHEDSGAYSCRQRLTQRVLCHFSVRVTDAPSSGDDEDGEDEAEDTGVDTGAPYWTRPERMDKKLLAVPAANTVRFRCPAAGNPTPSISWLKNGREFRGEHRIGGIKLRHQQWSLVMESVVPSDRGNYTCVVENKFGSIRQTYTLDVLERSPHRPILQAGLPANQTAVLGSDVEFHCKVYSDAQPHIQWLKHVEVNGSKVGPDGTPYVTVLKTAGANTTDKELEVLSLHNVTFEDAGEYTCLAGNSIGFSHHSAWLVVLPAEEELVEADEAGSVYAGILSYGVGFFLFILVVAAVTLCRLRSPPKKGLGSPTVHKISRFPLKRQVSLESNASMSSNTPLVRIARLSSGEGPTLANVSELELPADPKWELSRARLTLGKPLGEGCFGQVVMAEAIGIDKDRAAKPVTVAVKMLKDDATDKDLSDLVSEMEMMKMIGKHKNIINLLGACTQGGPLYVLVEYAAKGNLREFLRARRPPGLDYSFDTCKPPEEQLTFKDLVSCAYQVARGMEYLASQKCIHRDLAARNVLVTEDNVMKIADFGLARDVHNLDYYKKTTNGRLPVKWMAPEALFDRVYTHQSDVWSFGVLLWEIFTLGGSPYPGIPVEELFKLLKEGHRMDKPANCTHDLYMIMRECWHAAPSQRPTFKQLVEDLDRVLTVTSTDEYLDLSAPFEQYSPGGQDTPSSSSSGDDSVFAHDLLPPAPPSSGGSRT

Tests used:
[1] = target: T1, HEK-293 cells transfected with dox-inducible human wild type FGFR3 (Homo sapiens (Human), UniProt P22607); experiment: FGFR3 pERK cell assay; assay type: cell-based; settings: HEK-293 dox-inducible FGFR3, 1 hour compound, 100 ng/ml FGF-acidic; maximum concentration 5 μM
Protocol: FGFR3 pERK Cell Assay: • HEK-293 cells transfected with dox-inducible human wild type FGFR3 (SEQ ID NO: 5) were plated in a collagen or poly-D-lysine coated 96 well flat bottom plates at 4×10^5 cells/well in complete DMEM medium containing 10% FBS and 1 μg/ml doxycycline and allowed to attach for 24 h at 37° C., 5% CO2. Cells were treated with compound using 1:3 serial dilutions with a maximum final concentration of 5 μM. Compound was incubated on cells for 1 hour at 37° C., 5% CO2. Cells were then stimulated with a final concentration of 100 ng/ml human FGF-acidic (R&D Systems Cat number 232-FA/CF) for 5 minutes at 37° C., 5% CO2. Medium was removed, and cells were lysed with lysis buffer containing phosphatase and protease inhibitors. Phospho ERK1/2 was measured using the Meso Scale Discovery sandwich assay (Meso Scale Discovery cat. no. K151DWD). The assay captures phospho ERK1/2 and detects with a sulfo-tagged total ERK1/2 antibody. The chemiluminescent signal was read on the Sector Imager Plate reader. 100 POC was determined using no test compounds and 0 POC was determined using a control compound. The POC values were fit to a 4-parameter logistic curve as a function of the concentration of the compound, and the IC50 value is the point where the curve crosses 50 POC.

[2] = target: T1, HEK-293 cells transfected with dox-inducible human wild type FGFR3; experiment: FGFR3 pFGFR cell assay (ELISA); assay type: cell-based; settings: HEK-293 dox-inducible FGFR3, 1 hour compound, 100 ng/ml FGF-acidic
Protocol: FGFR3 pFGFR Cell Assay: • HEK-293 cells transfected with dox-inducible human wild type FGFR3 (SEQ ID NO: 5) were plated in a collagen or poly-D-lysine coated 96 well flat bottom plates at 4×10^5 cells/well in complete DMEM medium containing 10% FBS and 1 μg/ml doxycycline and allowed to attach for 24 h at 37° C., 5% CO2. Cells were treated with compound using 1:3 serial dilutions with a top final concentration of 5 μM. Compound was incubated on cells for 1 hour at 37° C., 5% CO2. Cells were then stimulated with a final concentration of 100 ng/ml human FGF-acidic for 5 minutes at 37° C., 5% CO2. Medium was removed and cells were lysed with lysis buffer containing phosphatase and protease inhibitors. Phospho FGFR3 was measured by ELISA (R&D Systems cat DYC2719). The ELISA captures total FGFR3 and detects total phospho tyrosine. Optical density was measured for each well using a Versamax reader at a wavelength of 450 nm. 100 POC was determined using no test compounds and 0 POC was determined using a control compound. The POC values were fit to a 4-parameter logistic curve as a function of the concentration of the compound, and the IC50 value is the point where the curve crosses 50 POC.

IC50 [1]	IC50 [2]	Compound
58 nM	43 nM	C=CS(=O)(=O)N[C@H]1C[C@H](C(=O)N2CCC(n3cc(-c4cc(OC)c5c(C#N)cnn5c4)cn3)CC2)C1 [Example 194, N-((1r,3r)-3-(4-(4-(3-cyano-4-methoxypyrazolo[1,5-a]pyridin-6-yl)-1H-pyrazol-1-yl)piperidine-1-carbonyl)cyclobutyl) ethenesulfonamide]
47 nM	53 nM	C=CS(=O)(=O)N[C@H]1C[C@@H](C(=O)N2CCC(n3cc(-c4cc(OC)c5c(C#N)cnn5c4)cn3)CC2)C1 [Example 193, N-((1s,3s)-3-(4-(4-(3-cyano-4-methoxypyrazolo[1,5-a]pyridin-6-yl)-1H-pyrazol-1-yl)piperidine-1-carbonyl)cyclobutyl) ethenesulfonamide]
